pKi: −log10 of the molar value.
Key:
Adenosine receptor A1 = Adenosine receptor A1 (Homo sapiens, UniProt P30542); test: Inhibition of [3H]DPCPX binding to human adenosine A1 receptor expressed in CHO cells; format: cell-based
Adenosine receptor A2a = Adenosine receptor A2a (Homo sapiens, UniProt P29274); test: Inhibition of [3H]-ZM 241385 binding to human adenosine A2a receptor expressed in CHO cells; format: cell-based

Amino acid sequences for entries named in this document (tags omitted).
UniProt P30542, whole entry: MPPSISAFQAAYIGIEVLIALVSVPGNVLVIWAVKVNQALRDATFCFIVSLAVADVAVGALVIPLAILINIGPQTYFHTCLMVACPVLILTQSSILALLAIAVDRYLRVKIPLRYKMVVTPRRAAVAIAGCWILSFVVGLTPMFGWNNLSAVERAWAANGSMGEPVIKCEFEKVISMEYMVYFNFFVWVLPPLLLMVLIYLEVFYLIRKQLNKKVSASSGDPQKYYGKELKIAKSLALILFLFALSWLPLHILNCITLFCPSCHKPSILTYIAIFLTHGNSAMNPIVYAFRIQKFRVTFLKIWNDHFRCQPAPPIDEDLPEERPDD

| pKi (Adenosine receptor A1) | pKi (Adenosine receptor A2a) | Structure (SMILES) |
| --- | --- | --- |
| < 6.00 | < 6.00 | CCCn1c(=O)c2c(nc3n2CC(CC)=C3)n(Cc2ccccc2)c1=O |
| < 6.00 | < 6.00 | CCCn1c(=O)c2c(nc3[nH]c(C)cn32)n(Cc2ccccc2)c1=O |

— ChEMBL document CHEMBL1140322, “New pyrrolo[2,1-f]purine-2,4-dione and imidazo[2,1-f]purine-2,4-dione derivatives as potent and selective human A3 adenosine receptor antagonists” (J Med Chem, 2005)
